In ChEMBL document CHEMBL1127404 (J Med Chem, 1994):

Target: Prothrombin (Homo sapiens, UniProt P00734)
Assay: In vitro binding affinity by measuring the inhibition of human thrombin

- Ki: 20 nM
SMILES: CC1CNc2c(cccc2S(=O)(=O)N[C@@H](CCCNC(=N)N)C(=O)N2CC[C@@H](C)C[C@@H]2C(=O)O)C1 (stereo partly specified) [ARGATROBAN]
